Like-named read-outs stand apart in the source and are kept apart here.
Assays:
[1] = target: PRC2 complex (EZH2/EED/SUZ12/RbAp48/AEBP2) (Homo sapiens (Human), UniProt Q15910); assay: Activity of a compound to PRC2 complex (EZH2 wild type), ELISA; format: biochemical
Source text: 2. Determination of the Activity of a Compound to PRC2 Complex (EZH2 Wild Type):
Detection Method: Enzyme-Linked Immunosorbent Assay (ELISA)
MATERIALS: The PRC2 complex (EZH2/EED/SUZ12/RbAp48/AEBP2) histone methyltransferase was purchased from BPS; the substrate Biotin H3 (21-44) me0 was produced by AnaSpec; SAM was purchased from Sigma, which is GL Biochem product; methyl donor SAM was purchased from Sigma-aldrich; H3K27me3 antibody was purchased from BPS.
Experimental method: avdin of a final concentration of 100 nM was used to coat 96-well plate at 10 μL/well, placed in a wet box and shaken overnight, and then 100 μL 3% BSA per well was added and blocked for 1 h at room temperature. PRC2 complex (EZH2/EED/SUZ12/RbAp48/AEBP2), H3 (21-44) me0 substrate, methyl donor SAM and compound were added into each well of the blocked 96-well plate. The total reaction system was 100 μL, placed in a wet box and allowed to react for 1 h on shaker at room temperature. The plate was washed with TBS-T [20 mM Tris-HCl (pH 7.2-7.4, room temperature), 150 mM NaCl, 0.1% (v/v) Tween-20] for 3 times, blocked with 3% BSA for 10 min, and anti-H3K27me3 antibody was added and incubated for 1 h in a wet box on shaker at room temperature. […] The plate was read by a plate reader at 490 nm and IC50 of the compound was calculated using SoftMax Pro 5.4.1 software.

Amino acid sequences for entries named in this document (tags omitted).
UniProt Q15910, whole entry: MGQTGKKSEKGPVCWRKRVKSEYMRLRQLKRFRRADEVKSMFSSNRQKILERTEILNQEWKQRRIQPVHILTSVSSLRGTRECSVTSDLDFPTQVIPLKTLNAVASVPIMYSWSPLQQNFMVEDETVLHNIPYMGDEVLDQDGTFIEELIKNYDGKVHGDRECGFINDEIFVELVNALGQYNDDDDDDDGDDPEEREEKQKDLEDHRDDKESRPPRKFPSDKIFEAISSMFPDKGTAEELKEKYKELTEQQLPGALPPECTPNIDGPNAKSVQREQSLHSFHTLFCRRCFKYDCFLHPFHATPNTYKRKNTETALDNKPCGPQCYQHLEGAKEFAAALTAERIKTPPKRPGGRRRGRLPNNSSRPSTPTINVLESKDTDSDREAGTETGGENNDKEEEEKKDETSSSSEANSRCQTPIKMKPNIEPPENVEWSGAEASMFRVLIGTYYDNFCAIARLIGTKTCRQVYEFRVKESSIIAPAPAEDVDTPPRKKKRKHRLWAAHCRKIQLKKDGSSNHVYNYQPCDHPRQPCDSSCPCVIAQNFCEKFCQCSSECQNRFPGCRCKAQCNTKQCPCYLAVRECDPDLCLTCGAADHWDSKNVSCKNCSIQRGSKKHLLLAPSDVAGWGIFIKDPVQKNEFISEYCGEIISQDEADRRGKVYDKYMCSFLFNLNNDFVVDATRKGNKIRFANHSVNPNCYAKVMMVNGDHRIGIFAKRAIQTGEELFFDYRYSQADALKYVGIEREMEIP
UniProt Q15910, whole entry Y641F: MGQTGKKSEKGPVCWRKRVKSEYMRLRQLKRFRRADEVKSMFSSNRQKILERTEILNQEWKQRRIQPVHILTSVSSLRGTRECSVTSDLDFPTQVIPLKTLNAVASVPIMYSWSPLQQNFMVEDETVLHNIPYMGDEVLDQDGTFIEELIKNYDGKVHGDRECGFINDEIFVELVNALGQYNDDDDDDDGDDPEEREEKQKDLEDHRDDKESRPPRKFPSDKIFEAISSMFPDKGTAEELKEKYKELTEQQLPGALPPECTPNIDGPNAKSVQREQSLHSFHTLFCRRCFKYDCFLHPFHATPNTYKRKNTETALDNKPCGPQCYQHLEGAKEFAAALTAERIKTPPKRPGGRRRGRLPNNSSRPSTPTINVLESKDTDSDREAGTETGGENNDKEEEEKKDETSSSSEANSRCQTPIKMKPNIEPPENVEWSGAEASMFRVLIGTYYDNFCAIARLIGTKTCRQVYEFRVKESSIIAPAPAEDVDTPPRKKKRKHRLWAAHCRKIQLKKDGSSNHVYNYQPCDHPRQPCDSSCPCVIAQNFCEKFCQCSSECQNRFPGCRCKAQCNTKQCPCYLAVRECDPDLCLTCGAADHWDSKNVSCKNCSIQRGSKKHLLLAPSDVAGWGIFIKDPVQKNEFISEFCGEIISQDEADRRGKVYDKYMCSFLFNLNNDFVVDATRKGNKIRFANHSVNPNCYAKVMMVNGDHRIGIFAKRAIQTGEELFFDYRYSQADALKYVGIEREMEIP

[2] = target: PRC2 complex (EZH2 Y641F/EED/SUZ12/RbAp48/AEBP2) (Homo sapiens (Human), UniProt Q15910, Y641F); assay: Activity of a compound to PRC2 complex (EZH2 Y641F), HTRF
[3] = read-out: IC50 (EZH2_Y641F), class symbols

| IC50 ([1]; numeric values) | IC50 ([2]; read-out: IC50 (EZH2_Y641F), numeric values) | IC50 [2, 3] | IC50 ([1]; class symbols) | SMILES |
| --- | --- | --- | --- | --- |
| 3.81 nM | 3.1 nM |  |  | COc1cc(C)[nH]c(=O)c1CNC(=O)c1cc2c(-c3ccn[nH]3)ccn2c([C@H](C)N2CCN(CC(F)(F)F)CC2)c1C (single isomer, unassigned) [Compound 156, (S)—N-((4-methoxy-6-methyl-2-oxo-1,2-dihydropyridin-3-yl)methyl)-6-methyl-1-(1H-pyrazol-5-yl)-5-(1-(4-(2,2,2-trifluoroethyl)piperazin-1-yl)ethyl)indolizine-7-carboxamide or (R)—N-((4-methoxy-6-methyl-2-oxo-1,2-dihydropyridin-3-yl)methyl)-6-methyl-1-(1H-pyrazol-5-yl)-5-(1-(4-(2,2,2-trifluoroethyl)piperazin-1-yl)ethyl)indolizine-7-carboxamide] |
|  |  | < 100 nM |  | COc1cc(C)[nH]c(=O)c1CNC(=O)c1cc2c(-c3ccn[nH]3)ccn2c(C(C)N2CCN(CC(F)(F)F)CC2)c1C (centres unmarked) [Compound 154, N-((4-methoxy-6-methyl-2-oxo-1,2-dihydropyridin-3-yl)methyl)-6-methyl-1-(1H-pyrazol-5-yl)-5-(1-(4-(2,2,2-trifluoroethyl)piperazin-1-yl)ethyl)indolizine-7-carboxamide] |
|  |  | < 100 nM | < 100 nM | Cc1cc(C)c(CNC(=O)c2cc3cccn3c(C(C)N3CCOCC3)c2C)c(=O)[nH]1 (centres unmarked) [Example 26, N-((4,6-dimethyl-2-oxo-1,2-dihydropyridin-3-yl)methyl)-6-methyl-5-(1-morpholinylethyl)indolizine-7-carboxamide] |
